The target in assay [1] is α7 AChRs on the surface of cells in the α7/RIC-3 line (Homo sapiens, UniProt P36544). Put plainly: Upregulation of surface 125I αBgt binding in the α7/RIC-3 cell line. The assay is classed as cell-based.
Assay [2] has as its target α7 AChRs on the surface of the α7 cell line (Homo sapiens, UniProt P36544). Kind of assay: Upregulation of surface 125I αBgt binding in the α7 cell line. The settings on record: 48 hours.

Protein sequences, listed by entry. Tags and fused reporters are not part of them. Residues count along the entry.
UniProt P36544, 23-502 limits assumed: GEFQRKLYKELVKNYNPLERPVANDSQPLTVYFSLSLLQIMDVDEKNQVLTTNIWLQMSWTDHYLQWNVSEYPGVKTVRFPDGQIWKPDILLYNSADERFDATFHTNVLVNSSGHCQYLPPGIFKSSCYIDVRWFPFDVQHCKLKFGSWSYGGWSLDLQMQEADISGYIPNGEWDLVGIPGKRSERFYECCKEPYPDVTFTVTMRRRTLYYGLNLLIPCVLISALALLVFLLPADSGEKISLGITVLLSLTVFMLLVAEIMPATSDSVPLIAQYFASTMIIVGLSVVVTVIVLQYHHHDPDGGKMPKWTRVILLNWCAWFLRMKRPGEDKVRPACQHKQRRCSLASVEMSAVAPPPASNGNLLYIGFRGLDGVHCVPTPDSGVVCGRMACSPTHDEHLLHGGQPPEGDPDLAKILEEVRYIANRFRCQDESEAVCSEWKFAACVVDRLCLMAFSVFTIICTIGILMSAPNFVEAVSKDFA

This note sets out measurements from paper PMC3634732, “Chemical Chaperones Exceed the Chaperone Effects of RIC-3 in Promoting Assembly of Functional α7 AChRs” (PLoS ONE, 2013).

As to Sodium butyrate, the “Expression of α7 AChRs on the cell surface” value in assay [1] (α7/RIC-3 line, single chemical chaperone) was “greatly increased”.

For the molecule `CCN1C[C@]2(COC(=O)c3ccccc3N3C(=O)C[C@H](C)C3=O)CC[C@H](OC)[C@@]34[C@@H]5C[C@H]6[C@H](OC)[C@@H]5[C@](O)(C[C@@H]6OC)[C@@](O)([C@@H](OC)[C@H]23)[C@@H]14`, the “Upregulation of 125I αBgt binding to the cell surface” value is 16 fold in assay [2] and 2.1 fold in assay [1] (α7/RIC-3 line, 48 hours). Moreover, the “Potency at upregulation less than potency as agonist or antagonist of function” value in assay [1] (upregulation EC50 vs functional potency) was above 2000 fold.
